Chains of the proteins cited; added tags and fusions are not shown. Lines headed by an entry give the natural chain unless they say otherwise; changes in a name come on top.
UniProt P14780: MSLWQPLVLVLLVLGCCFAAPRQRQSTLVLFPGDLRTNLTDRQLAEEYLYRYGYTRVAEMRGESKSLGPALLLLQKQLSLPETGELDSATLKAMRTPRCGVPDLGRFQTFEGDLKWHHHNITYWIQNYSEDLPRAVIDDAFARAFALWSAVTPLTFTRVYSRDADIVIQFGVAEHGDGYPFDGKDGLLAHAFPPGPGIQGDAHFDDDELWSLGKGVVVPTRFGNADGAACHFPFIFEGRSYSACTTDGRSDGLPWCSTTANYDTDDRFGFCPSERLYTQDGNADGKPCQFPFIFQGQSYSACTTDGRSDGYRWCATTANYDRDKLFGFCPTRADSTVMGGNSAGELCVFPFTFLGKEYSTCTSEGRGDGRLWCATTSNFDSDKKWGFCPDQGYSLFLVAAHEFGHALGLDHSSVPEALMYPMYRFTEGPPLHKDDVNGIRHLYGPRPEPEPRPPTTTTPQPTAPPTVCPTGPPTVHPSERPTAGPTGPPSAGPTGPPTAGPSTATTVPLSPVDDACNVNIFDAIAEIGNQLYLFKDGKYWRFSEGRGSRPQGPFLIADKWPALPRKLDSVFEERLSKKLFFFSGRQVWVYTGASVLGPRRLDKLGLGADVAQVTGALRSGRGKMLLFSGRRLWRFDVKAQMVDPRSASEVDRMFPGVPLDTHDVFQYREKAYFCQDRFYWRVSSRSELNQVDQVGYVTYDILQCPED

In ChEMBL document CHEMBL1140637, “QSAR modeling of matrix metalloproteinase inhibition by N-hydroxy-alpha-phenylsulfonylacetamide derivatives” (Bioorg Med Chem, 2007):

Legend:
[1] = molecular target: T1, Interstitial collagenase (Homo sapiens) (UniProt P03956); experiment: Inhibition of MMP1
T1 sequence (whole entry): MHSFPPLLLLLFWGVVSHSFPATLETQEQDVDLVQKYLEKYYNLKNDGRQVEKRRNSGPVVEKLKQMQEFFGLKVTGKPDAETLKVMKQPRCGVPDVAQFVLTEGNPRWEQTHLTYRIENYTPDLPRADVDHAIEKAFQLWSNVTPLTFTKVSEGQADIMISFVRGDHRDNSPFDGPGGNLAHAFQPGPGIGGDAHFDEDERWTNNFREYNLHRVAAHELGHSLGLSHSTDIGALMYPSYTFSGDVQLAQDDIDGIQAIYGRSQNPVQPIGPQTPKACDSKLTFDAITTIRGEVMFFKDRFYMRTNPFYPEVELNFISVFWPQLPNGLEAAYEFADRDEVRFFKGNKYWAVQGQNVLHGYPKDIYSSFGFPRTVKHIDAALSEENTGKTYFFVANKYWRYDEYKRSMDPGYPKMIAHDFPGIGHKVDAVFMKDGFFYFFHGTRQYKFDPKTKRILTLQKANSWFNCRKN

[2] = molecular target: Matrix metalloproteinase-9 (Homo sapiens) (UniProt P14780); experiment: Inhibition of MMP9
[3] = molecular target: Collagenase 3 (Homo sapiens) (UniProt P45452)

Row | Compound | log(10^6/IC50) [1] | log(10^6/IC50) [2] | log(10^6/IC50) [3]
1 | COc1ccc(S(=O)(=O)[C@](C)(Cc2ccc(OCCN(C(C)C)C(C)C)cc2)C(=O)NO)cc1 | 3.37 | 4.82 | 4.72
2 | Cc1ccc(CN2CCC(C(=O)NO)(S(=O)(=O)c3ccc(OCc4ccc(Cl)cc4)cc3)CC2)cc1 | 2.32 | 5.22 | 5.22
3 | CN1CCC(C(=O)NO)(S(=O)(=O)c2ccc(Oc3ccc(Cl)cc3)cc2)CC1 | 2.85 | 5.7 | 5.7

More lines, now with the values ahead:

Row | log(10^6/IC50) [1] | log(10^6/IC50) [2] | log(10^6/IC50) [3] | Compound
4 | 2.59 | 5.4 | 5.7 | CC(C)CCOc1ccc(S(=O)(=O)C2(C(=O)NO)CCN(Cc3ccccc3)CC2)cc1
5 | 3 | 4.2 | 4.89 | COc1ccc(S(=O)(=O)[C@@](Cc2cccnc2)(CC(C)C)C(=O)NO)cc1
6 | 3.2 | 4.96 | 4.8 | CCOc1ccc(S(=O)(=O)[C@](C)(Cc2ccc(OCCN(CC)CC)cc2)C(=O)NO)cc1
